{"source": "patent US11839619B2", "about": "“Methods for treatment of pediatric systemic mastocytosis” (The Regents of the University of California, priority 2019, dated 2023)", "tested_on": "indolent SM with KIT p.D816V pathogenic variant", "assay": "Treatment of an infant patient with indolent systemic mastocytosis (compassionate use case)", "conditions": "infant patient on midostaurin", "data": [{"smiles": "CO[C@@H]1[C@H](N(C)C(=O)c2ccccc2)C[C@H]2O[C@]1(C)n1c3ccccc3c3c4c(c5c6ccccc6n2c5c31)C(=O)NC4", "note": "[midostaurin]", "values": [{"measurement": "tolerability", "result": "tolerating midostaurin well"}]}]}
